How the values were obtained:
Format in all cases: cell-based, human
Conditions in all cases: 10 μg/ml
SKBR-3 cells [1] = assay: HER2 ECD ELISA of conditioned media (HER2 shedding), SKBR-3 cells
BT 474 cells [2] = assay: Proliferation assay (Alamar blue), BT 474 cells
BT 474 cells [3] = assay: HER2 ECD ELISA of conditioned media (HER2 shedding), BT 474 cells
SKBR-3 cells [4] = assay: Proliferation assay (Alamar blue), SKBR-3 cells

In the case of “trastuzumab: antibody comprising the light and heavy chain amino acid sequences in SEQ ID NOS. 5 and 6; humanized version of murine HER2 antibody 4D5”, the “reduction of HER2 ECD shedding” value (SKBR-3 cells [1]) is reported as “more than 60%”, the “reduction of cellular proliferation” value (BT 474 cells [2]) is reported as 50% and the “reduction of HER2 ECD shedding” value (BT 474 cells [3]) is reported as “more than 60%”. The “reduction of cellular proliferation” value (SKBR-3 cells [4]) was 50%.

Reference: patent US20060177448A1, “Inhibiting HER2 shedding with matrix metalloprotease antagonists” (Genentech, Inc., priority 2005, published 2006)
